# Experimental data taken from PubChem BioAssay AID1457 (National Center for Advancing Translational Sciences (NCATS), 2008).
# The list shows a part of the results, in another mix than the full data. Some tests of the compounds listed are not included; inactive here does not mean inactive elsewhere. The source made the active and inactive calls. Calls come from the whole dose curve; as a rule, active = well fitted inhibition curve with a large enough effect; inconclusive = small, poorly fitted or top-dose-only effect; inactive = no such curve, though single readings can be large or run the other way.
# Test: qHTS Assay for Identifying the Cell-Membrane Permeable IMPase Inhibitors: Potentiation with Lithium;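 note: IP1 builds up when IMPase is blocked and the TR-FRET signal falls; plate controls were basal vehicle for no effect and high inhibitor control for full effect; nearly all actives have a fitted effect of over 50% in size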
# Conditions: CHO-M1 cells, IP1 TR-FRET (IP-One), carbachol + lithium; at 59.4 µM (top of the series) unless noted
row,Compound,"activity, negative = IMPase inhibition"
1,CN(C)c1cccc(C(=O)NCC2(N(C)C)CCCCC2)c1,inactive: -5.94% [at 38.3 µM]
2,CN1CC[C@H](OC(=O)[C@](O)(c2ccccc2)C2CCCC2)C1,inactive: 23.6%
3,O=C(OC1CN2CCC1CC2)C(CO)(c1ccccc1)c1ccccc1 (configuration not stated),inactive: 26.3% [at 38.3 µM]
4,CN1CCC[C@H](OC(=O)[C@](O)(c2ccccc2)C2CCCC2)C1,inactive: 26.1%
5,C=C(C)C#C[C@@](O)(C(=O)OC1CCN(C)CC1)c1ccccc1,inactive: 18.6%
6,COc1cccc(C(=O)NCC2(N3CCCCC3)CCCCC2)c1,inactive: 11.3%
7,C=CCN1CCN(CCOC(=O)C(O)(c2ccccc2)c2ccccc2)CC1,inactive: 34%
8,CCN1CCCC(OC(=O)C2(O)c3ccccc3C=Cc3ccccc32)C1 (configuration not stated),inactive: 0.815%
9,CN(C)C1CCCC1OC(=O)C(O)(c1ccccc1)c1ccccc1 (configuration not stated),inactive: 11.9%
10,Cc1ccccc1C(=O)NCC1(N2CCCCC2)CCCCC1,inactive: 9.28%
11,CC(C)N1C(=O)CC2(CCN(CCOC(=O)C(O)(c3ccccc3)c3ccccc3)CC2)C1=O,inactive: 3.36% [at 38.3 µM]
12,O=C(NCC1(N2CCCCC2)CCCCC1)c1cc([N+](=O)[O-])ccc1Cl,inactive: 8.44%
